{"source": "patent US7998924B2", "about": "“Compounds that bind to p185 and methods of using the same” (The Trustees of The University of Pennsylvania, priority 2001, dated 2011)", "target": "T1, HER2 receptor (Homo sapiens, UniProt P04626)", "T1 construct": "Recombinant purified HER2 receptor composed of the ectodomain of HER2 fused to the Fc of human IgG; purchased Xcyte Therapeutics, Seattle, Wash; (provided by Dr. Che Law; a gift, not a catalogue product)", "assay": "Biacore (surface plasmon resonance) binding of peptides to immobilized HER2", "text": "Binding of AHNP has been studies by means of surface plasmon resonance (Biacore) technology. In Biacore experiments, one of the interacting molecules (termed the ligand) is immobilized on the sensor surface, and the other interactant (termed the analyte) is continuously flown over that surface in a micro-flow cell. The interaction between the ligand and the analyte are monitored using a light source that is reflected at the immobilized chip. Binding of the analyte to the immobilized ligand changes the resonance angle of the reflected light due to changes in the refractive index of the surface. The response is plotted in real time in the form of sensorgram curves. The advantage with this approach is its sensitivity, ease of use, and ability to perform experiments with few microgram quantities of proteins and peptides. In addition, the kinetic binding studies reveal association and disassociation rates of the analyte which may be more relevant for understanding the pharmacokinetics of drug-receptor interactions.\nBinding experiments were performed with the surface plasmon resonance based biosensor instrument Biacore 3000 (Biacore AB, Uppsala, Sweden) at 25° C. […] Peptides were injected at variable concentrations at 20 μL/min flow rate and binding to the HER2 receptor immobilized on the chip was monitored in real time. […]", "note": "Positions of bridges follow the written chain, without caps; N, C: chain ends. Residues, ends and D or L forms follow the SMILES beside them.", "data": [{"smiles": "CSCC[C@H](NC(=O)[C@H](Cc1ccc(O)cc1)NC(=O)[C@@H]1CSSC[C@H](NC(=O)[C@@H](N)Cc2ccccc2)C(=O)N[C@@H](CC(=O)O)C(=O)NCC(=O)N[C@@H](Cc2ccccc2)C(=O)N[C@@H](Cc2ccc(O)cc2)C(=O)N[C@@H](C)C(=O)N1)C(=O)N[C@@H](CC(=O)O)C(=O)N[C@H](C(=O)N[C@@H](CCCCN)C(N)=O)C(C)C", "note": "[Peptide 5] (H-FCDGFYACYMDVK-NH2; disulfide 2-8)", "values": [{"measurement": "koff", "setting": "read-out: binding to HER2 koff", "value": 0.000512, "unit": "s⁻¹"}, {"measurement": "kon", "setting": "read-out: binding to HER2 kon", "value": 617, "unit": "M⁻¹ s⁻¹"}]}]}
